From paper PMC9394474 (2022) come the findings set out here.

This test has as its target human hisTRIM7- (human, UniProt Q9C029 342-511). As to the kind of experiment: ITC. (Isothermal titration calorimetry measures the heat released or taken up as one component is titrated into another.)

B1: rbGYG1 VR-CIV (domain or fragment)
chain: NVWWDIFTTSVVPLLQQFGLVQDTCSYQHVEDVSGAVSHLSLGETPATTQPFVSSEERKERWEQGQADYMGADSFDNIKKKLDTYLQ
As a reminder, the Kd is a measure of binding affinity in units of concentration. A lower Kd goes with a tighter complex. With B1, the Kd was 2.6 µM.
